Measurements as given in ChEMBL document CHEMBL1909577, “Discovery of 3-hydroxy-4-cyano-isoquinolines as novel, potent, and selective inhibitors of human 11β-hydroxydehydrogenase 1 (11β-HSD1)” (Bioorg Med Chem Lett, 2011).

System: UDP-glucuronosyltransferase (Mus musculus)
Experiment: in vitro
Settings: human, liver microsomes

**Q.** With `N#Cc1c(=O)[nH]c(OCc2ccccc2Cl)c2cc(F)ccc12` as the compound, how does the half-life read?
**A.** 5 min
